Assay results as given in patent US20140328918A1, “METHODS OF TREATING A SUBJECT AND RELATED PARTICLES, POLYMERS AND COMPOSITIONS” (CERULEAN PHARMA INC., priority 2010, published 2014).

What was measured:
[1] = for In vitro degradation of conjugate (24 hrs in PBS at 37° C.) / In vitro release of free drug (24 hrs in PBS at 37° C.): 0.1x PBS, pH = 7.4, 37° C.; for stability of the linker toward hydrolysis in vitro: CDP-linker-docetaxel, 37° C., 0.1x PBS pH 7.4, 24 h
Protocol: A 10 mg/mL (with regard to polymer) solution of each CDP-linker-DTX nanoparticle was prepared in water (pH<5) or in 0.1×PBS buffer (pH=7.4). An aliquot of 100 μL was transferred into corresponding HPLC vials. A vial containing each CDP-linker-DTX nanoparticle in water for each designated time point was placed in both: 1) a water bath at 37° C. and 2) kept at room temperature at 25° C. Samples were mixed using a water bath shaker at 100 rpm during the experiments. At each designated time point, a vial was removed for each CDP-linker-DTX nanoparticle and processed for HPLC using a sample preparation procedure.
If there was any precipitated material in the vial, the contents were also stirred to dissolve the precipitate. If the sample was still opaque, an additional 25 μL of 0.1% formic acid in ACN was added.
The sample degradation was calculated based on the percentage of the amount of conjugated drug with regard to the initial starting point of the experiment (at t=0).

[2] = Particle properties (Zavg, PDI, Dv50, Dv90) by dynamic light scattering; type: physicochemical
Excerpt: Particle solution properties were characterized by dynamic light scattering (DLS) spectrometer.

CDP-2′-glycine-docetaxel
In vitro degradation of conjugate (24 hrs in PBS at 37° C.) [1]: 84% | In vitro release of free drug (24 hrs in PBS at 37° C.) [1]: 88% | stability of the linker toward hydrolysis in vitro [1]: more susceptible to hydrolysis

CDP-Alanine Glycolate-Docetaxel
Dv50 [2]: 12.9 nm | Dv90 [2]: 26.1 nm | Particle PDI [2]: 0.280 | Zavg (Z-average) [2]: 35.81 nm | In vitro degradation of conjugate (24 hrs in PBS at 37° C.) [1]: 96% | In vitro release of free drug (24 hrs in PBS at 37° C.) [1]: 95% | stability of the linker toward hydrolysis in vitro [1]: more susceptible to hydrolysis

CDP-hexanoate-docetaxel [CDP-hexanoate-docetaxel nanoparticles]
In vitro degradation of conjugate (24 hrs in PBS at 37° C.) [1]: 7% | In vitro release of free drug (24 hrs in PBS at 37° C.) [1]: 8% | stability of the linker toward hydrolysis in vitro [1]: relatively stable toward hydrolysis in vitro
